One block for each compound: values may come before it.
Key:
[1] = molecular target: T1, N-domain of bovine ACE (N-ACE) (Bos taurus, UniProt P12820); test: Hydrolysis of Aβ metal-binding-domain peptides by N-ACE, products identified/quantified by MALDI-TOF MS; settings: for Peptide bond hydrolysed by N-ACE: bicarbonate buffer pH 7.8, 37 °C, incubation 40 min (Aβ(1-16)), 130 min (amidated Aβ peptides), 60 min (ratAβ peptide); for Bond cleaved, N-ACE (backbone positions): same digestion as products observed, 37 °C
T1 sequence (P12820 40-624 limits assumed): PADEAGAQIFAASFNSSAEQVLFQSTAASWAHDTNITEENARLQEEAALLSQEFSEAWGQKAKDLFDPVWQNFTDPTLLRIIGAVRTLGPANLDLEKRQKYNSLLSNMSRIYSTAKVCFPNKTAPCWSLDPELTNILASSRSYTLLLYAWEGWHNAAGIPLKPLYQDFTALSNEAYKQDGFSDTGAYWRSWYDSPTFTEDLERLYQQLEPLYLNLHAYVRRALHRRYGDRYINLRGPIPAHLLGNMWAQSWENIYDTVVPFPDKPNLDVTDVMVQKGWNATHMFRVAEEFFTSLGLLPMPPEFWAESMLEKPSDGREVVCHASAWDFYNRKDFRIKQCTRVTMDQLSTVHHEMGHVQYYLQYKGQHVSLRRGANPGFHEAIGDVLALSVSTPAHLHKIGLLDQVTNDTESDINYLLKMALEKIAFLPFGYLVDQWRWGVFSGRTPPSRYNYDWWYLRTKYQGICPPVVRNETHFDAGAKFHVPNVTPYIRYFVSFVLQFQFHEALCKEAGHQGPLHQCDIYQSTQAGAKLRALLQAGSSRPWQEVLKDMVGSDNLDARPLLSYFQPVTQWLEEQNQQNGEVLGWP

[2] = molecular target: T2, C-domain of bovine ACE (C-ACE) (Bos taurus, UniProt P12820); test: Hydrolysis of Aβ metal-binding-domain peptides by C-ACE, products identified/quantified by MALDI-TOF MS; settings: same experimental conditions as N-ACE, 37 °C
T2 sequence (P12820 643-1222 limits assumed): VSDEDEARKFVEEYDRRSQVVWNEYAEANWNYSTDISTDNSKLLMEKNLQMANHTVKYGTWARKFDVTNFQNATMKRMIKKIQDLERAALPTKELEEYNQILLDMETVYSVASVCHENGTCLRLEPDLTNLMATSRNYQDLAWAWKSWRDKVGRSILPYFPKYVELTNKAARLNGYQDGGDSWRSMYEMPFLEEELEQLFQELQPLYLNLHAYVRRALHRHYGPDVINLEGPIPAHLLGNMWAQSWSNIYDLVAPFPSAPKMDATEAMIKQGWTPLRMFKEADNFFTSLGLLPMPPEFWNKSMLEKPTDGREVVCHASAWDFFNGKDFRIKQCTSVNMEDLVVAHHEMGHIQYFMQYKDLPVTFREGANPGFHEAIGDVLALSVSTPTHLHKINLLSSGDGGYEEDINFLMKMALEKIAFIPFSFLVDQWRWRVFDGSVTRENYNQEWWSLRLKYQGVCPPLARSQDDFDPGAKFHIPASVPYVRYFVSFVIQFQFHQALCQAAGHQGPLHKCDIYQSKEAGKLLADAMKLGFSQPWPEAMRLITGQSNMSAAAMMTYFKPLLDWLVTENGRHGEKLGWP

[3] = tested on: N-ACE (N-domain of bovine ACE); settings: 37 °C, up to 130 min
N-domain of ACE [4] = settings: cited from earlier work
Source text: This hormone is synthesized in the organism with a modified C-terminal amino-acid residue (Pyr-HWSYGLRPG-[Amide]) and a negatively charged pyroglutamate residue at the N-terminus. […] Thus, inhibitors of ACE should mainly suppress the formation of isoAβ(6-x) species, what could explain the positive effect of these inhibitors on patients with AD[33]–[37] and the slowing of neurod ...

C-domain of ACE = settings: cited from earlier work
Source text: Other researchers using peptides with unprotected ends have shown that the hydrolysis of Aβ(1–16) by both domains of ACE is not limited or specific, and that under certain conditions the C-domain also hydrolyzes Aβ peptides.

N-domain of ACE [5] = settings: cited from earlier work; remark: listed apart in the source
[6] = tested on: C-ACE (C-domain of bovine ACE); settings: 37 °C, up to 40 min
C-domain of ACE (C-ACE) = test: C-ACE with lisinopril; settings: bovine, 37 °C

Compound: CC(C)[C@H](NC(=O)[C@H](CCC(=O)O)NC(=O)[C@H](Cc1ccc(O)cc1)NC(=O)CNC(=O)[C@H](CO)NC(=O)[C@H](CC(=O)O)NC(=O)[C@H](Cc1c[nH]cn1)NC(=O)[C@H](CCCNC(=N)N)NC(=O)[C@H](Cc1ccccc1)NC(=O)[C@H](CCC(=O)O)NC(=O)[C@H](C)NC(=O)[C@@H](N)CC(=O)O)C(=O)N[C@@H](Cc1c[nH]cn1)C(=O)N[C@@H](Cc1c[nH]cn1)C(=O)N[C@@H](CCC(N)=O)C(=O)N[C@@H](CCCCN)C(N)=O [Aβ(1-16)-[Amide], Asp-Ala-Glu-Phe-Arg^5-His-Asp- Ser-Gly-Tyr^10-Glu-Val-His-His-Gln^15-Lys-[NH2]]
Peptide bond hydrolysed by N-ACE [1]: Arg5-His6 | Bond cleaved, N-ACE (backbone positions) [1]: 5–6 | Peptide bond(s) hydrolysed by C-ACE [2]: does not cleave

cleaved bond [3]: Arg5-His6, 10 min
Compound: DAEFRHDSGYEVHHQK-[Amide]

Compound: CC(=O)N[C@@H](CC(=O)O)C(=O)N[C@@H](C)C(=O)N[C@@H](CCC(=O)O)C(=O)N[C@@H](Cc1ccccc1)C(=O)N[C@@H](CCCNC(=N)N)C(=O)N[C@@H](Cc1c[nH]cn1)C(=O)N[C@@H](CC(=O)O)C(=O)N[C@@H](CO)C(=O)NCC(=O)N[C@@H](Cc1ccc(O)cc1)C(=O)N[C@@H](CCC(=O)O)C(=O)N[C@H](C(=O)N[C@@H](Cc1c[nH]cn1)C(=O)N[C@@H](Cc1c[nH]cn1)C(=O)N[C@@H](CCC(N)=O)C(=O)N[C@@H](CCCCN)C(N)=O)C(C)C [[CH3CO]-Asp-Ala-Glu-Phe-Arg^5-His-Asp- Ser-Gly-Tyr^10-Glu-Val-His-His-Gln^15-Lys-[NH2]]
Bond cleaved / hydrolysis by N-domain of ACE (earlier work) (N-domain of ACE [4]): Arg5-His6 | Peptide bond hydrolysed by N-ACE [1]: Arg5-His6 | Bond cleaved, N-ACE (backbone positions) [1]: 5–6 | Hydrolysis by C-domain of ACE (earlier work) (C-domain of ACE): does not affect any of the bonds | Peptide bond(s) hydrolysed by C-ACE [2]: does not cleave

cleaved bond [3]: Arg5-His6, 10 min
Compound: [Acetyl]- DAEFRHDSGYEVHHQK Amide]
cleaved bond (N-domain of ACE [5]): Arg5-His6

Compound: CC(C)[C@H](NC(=O)[C@H](CCC(=O)O)NC(=O)[C@H](Cc1ccc(O)cc1)NC(=O)CNC(=O)[C@H](CO)NC(=O)[C@H](CC(=O)O)NC(=O)[C@H](Cc1c[nH]cn1)NC(=O)[C@H](CCCNC(=N)N)NC(=O)[C@H](Cc1ccccc1)NC(=O)[C@H](CCC(=O)O)NC(=O)[C@H](C)NC(=O)[C@@H](N)CC(=O)O)C(=O)N[C@@H](Cc1c[nH]cn1)C(=O)N[C@@H](Cc1c[nH]cn1)C(=O)N[C@@H](CCC(N)=O)C(=O)N[C@@H](CCCCN)C(=O)O [Aβ(1-16), Asp-Ala-Glu-Phe-Arg^5-His-Asp- Ser-Gly-Tyr^10-Glu-Val-His-His-Gln^15-Lys]
Peptide bond hydrolysed by N-ACE [1]: Нis14-Gln15 | Bond cleaved, N-ACE (backbone positions) [1]: 13–14 | Peptide bond(s) hydrolysed by C-ACE [2]: Нis14-Gln15 and Нis13-Нis14

cleaved bond [6]: His13-His14
Compound: DAEFRHDSGYEVHHQK
not cleaved (C-domain of ACE (C-ACE)): formation of hydrolysis products fully prevented
